# Results published in article PMC7613515, “Reading and erasing of the phosphonium analogue of trimethyllysine by epigenetic proteins” (Communications Chemistry, 2022).
# System: KDM3AJmjC (T515–S1317)
# Experiment: MALDI-TOF demethylation assay, KDM3AJmjC
# Format: biochemical
# Settings: 1 hr
# Text: To investigate whether H3KP9me3 can be demethylated by other human KDM4 subfamily members, recombinant KDM4AJmjC (M1–L359) and KDM4DJmjC (M1–L358) were produced in E. coli following an adaption of literature procedures[38],[39]. […] No evidence for further demethylation was accrued. […] To test the ability of KDM3 and KDM7 subfamily representatives to demethylate H3KP9me2 or H3KP9me3, KDM3AJmjC (T515–S1317) and KDM7BJmjC (M37–N483) were produced using baculovirus/sf9 and E. coli expression systems, respectively[40],[41]. The synthesis of a histone H3 mimic peptide H3KP9me2 substrate is challenging as the tri-alkylated phosphine group is susceptible to oxidation during synthesis of the protected amino acid and during SPPS requiring oxygen-free conditions. Thus, to investigate if KDM3AJmjC or KDM7BJmjC can catalyse demethylation of H3KP9me2, an appropriate H3KP9me2 substrate was prepared in situ from H3KP9me3 using KDM4EJmjC (2.0 µM), in the presence of KDM3AJmjC (2.0 µM) or KDM7BJmjC (2.0 µM).
# A Bruker Daltonics MALDI-TOF/TOF AutoflexSpeed machine and Bruker MTP 384 target plates (polished steel BC, Part: 8280781) were used. The machine was controlled using Flex control (v. 3.4 build 135.10) and Compass for flex series (v. 1.4) software. Measurements were in the positive ion mode with the reflectron mode enabled. […] Samples were then analysed by MALDI-TOF. […]
substance,measurement,setting,value
"ARTKQTAR(Kme3)STGGKA [H3K9me3, natural trimethyllysine control peptide, histone H3 residues 1–15, reference compound]",demethylation in combination with KDM4EJmjC,"KDM3AJmjC 2.0 µM plus KDM4EJmjC 2.0 µM, peptide 5.0 µM",manifests conversion to H3K9me1
same,demethylation,"KDM3AJmjC 2.0 µM, H3KP9me2 prepared in situ with KDM4EJmjC",do not catalyse demethylation of H3K9me3
